Data on two compounds can be found in ChEMBL document CHEMBL1140164, “Isosorbide-2-carbamate esters: potent and selective butyrylcholinesterase inhibitors” (J Med Chem, 2008).

By UniProt entry, the sequences of proteins in these tests, tags left out.
UniProt P06276, whole entry: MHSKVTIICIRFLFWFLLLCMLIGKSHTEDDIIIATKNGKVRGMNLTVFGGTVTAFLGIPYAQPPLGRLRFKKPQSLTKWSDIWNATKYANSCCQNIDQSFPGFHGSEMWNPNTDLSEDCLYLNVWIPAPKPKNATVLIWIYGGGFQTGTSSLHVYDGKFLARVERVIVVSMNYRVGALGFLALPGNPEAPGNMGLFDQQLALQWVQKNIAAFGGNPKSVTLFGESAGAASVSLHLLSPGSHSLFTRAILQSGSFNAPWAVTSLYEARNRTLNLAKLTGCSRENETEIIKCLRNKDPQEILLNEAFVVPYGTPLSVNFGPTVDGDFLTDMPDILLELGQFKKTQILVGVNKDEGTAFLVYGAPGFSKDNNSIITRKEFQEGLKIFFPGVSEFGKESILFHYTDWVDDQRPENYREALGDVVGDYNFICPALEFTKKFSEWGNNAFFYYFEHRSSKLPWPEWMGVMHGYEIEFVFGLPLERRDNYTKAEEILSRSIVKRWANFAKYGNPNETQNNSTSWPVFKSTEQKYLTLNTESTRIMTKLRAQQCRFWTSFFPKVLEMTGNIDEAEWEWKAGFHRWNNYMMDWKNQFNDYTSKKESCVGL

The target of the test is Cholinesterase (Homo sapiens, UniProt P06276). The test can be described thus: Inhibition of human plasma BuchE by Ellman's method. The test is classed as cell-free.

Molecules are shown by their SMILES. pIC50: −log10 of the molar value.

As to `CC(C)NP(=O)(NC(C)C)OP(=O)(NC(C)C)NC(C)C` [TETRAISOPROPYL PYROPHOSPHORAMIDE], the pIC50 – broadly, the negative decadic logarithm of the IC50, by convention in mol/L – is 6.13.

Regarding `C=CC[N+](C)(C)c1ccc(CCC(=O)CCc2ccc([N+](C)(C)CC=C)cc2)cc1`, the pIC50 was 3.59.
